The numbers were not newly measured in PMC10349193 (CPT: Pharmacometrics & Systems Pharmacology, 2023), which cites them from elsewhere.

SMILES strings stand for the structures.

For data set [1] the following is noted: single adjusting compartment; ref SimCYP library version 19; cited from earlier work.
Another data set has as its system Caco-2. The settings on record: pH 6.5: pH 7.4, Passive; rifampicin file with reference compound; ref SimCYP library version 19; cited from earlier work.

On to `CO[C@H]1/C=C/O[C@@]2(C)Oc3c(C)c(O)c4c(O)c(c(/C=N/N5CCN(C)CC5)c(O)c4c3C2=O)NC(=O)/C(C)=C\C=C\[C@H](C)[C@H](O)[C@@H](C)[C@@H](O)[C@@H](C)[C@H](OC(C)=O)[C@@H]1C` [Rifampicin], for which the “Volume [Vsac]” value in data set [1] was 1e-05 L/kg. Also, the “Caco-2 Papp” value in the data set with Caco-2 was 15 10^-6 cm/s.
